Biological target: Cannabinoid receptor 1 (Homo sapiens, UniProt P21554)
Test: biochemical
Assay type: cell-based, HEK293

Chains of the proteins cited; added tags and fusions are not shown.
UniProt P21554, whole entry: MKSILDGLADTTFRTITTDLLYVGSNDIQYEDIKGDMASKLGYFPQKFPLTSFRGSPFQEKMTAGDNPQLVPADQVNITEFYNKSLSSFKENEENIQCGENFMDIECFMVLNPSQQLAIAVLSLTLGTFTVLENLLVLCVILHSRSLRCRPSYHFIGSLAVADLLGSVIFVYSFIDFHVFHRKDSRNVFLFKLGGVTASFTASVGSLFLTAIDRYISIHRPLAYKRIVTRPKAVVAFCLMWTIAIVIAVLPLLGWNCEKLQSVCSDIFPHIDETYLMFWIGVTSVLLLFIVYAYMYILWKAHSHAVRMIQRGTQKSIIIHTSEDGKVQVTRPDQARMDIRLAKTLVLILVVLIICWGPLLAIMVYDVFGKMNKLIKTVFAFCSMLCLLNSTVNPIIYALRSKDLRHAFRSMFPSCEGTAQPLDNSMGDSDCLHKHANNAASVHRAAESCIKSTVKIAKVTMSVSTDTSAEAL

Cc1ccc(Cn2nc(C(=O)N[C@@H]3C(C)(C)[C@@H]4CC[C@@]3(C)C4)cc2-c2ccc(Cl)c(C)c2)cc1 [SR-144528]
Ki: > 2.82 µM

Source: ChEMBL document CHEMBL1811785, “Investigations on the 4-quinolone-3-carboxylic acid motif. 4. Identification of new potent and selective ligands for the cannabinoid type 2 receptor with diverse substitution patterns and antihyperalgesic effects in mice” (J Med Chem, 2011)
